Target: T1, c-Jun N-terminal protein kinase (JNK), 46 kD form, endogenous kinase from cell extracts (human, UniProt P45983-2)
T1 construct: Not a purified recombinant protein: kinase activity captured from extracts of Jurkat, HeLa (human), FR3T3 (rat), F9 (mouse), QT6 (quail) and other cells; the tie to the endogenous 46 kD activity is 'homologous or identical'; also called JNK1; 46 kD JNK
Experiment: solid-phase kinase assay, Jurkat whole cell extracts on GST-GSH-agarose beads

binding result: no binding
B1: GST (glutathione-S-transferase alone) (other, UniProt P08515 1-218, looked up)
chain: MSPILGYWKIKGLVQPTRLLLEYLEEKYEEHLYERDEGDKWRNKKFELGLEFPNLPYYIDGDVKLTQSMAIIRYIADKHNMLGGCPKERAEISMLEGAVLDIRYGVSRIAYSKDFETLKVDFLSKLPEMLKMFEDRLCHKTYLNGDHVTHPDFMLYDALDVVLYMDPMCLDAFPKLVCFKKRIEAIPQIDKYLKSSKYIAWPLQGWQATFGGGDHPPK
notes: Control protein on GSH-agarose beads; also called GST moiety; GST-GSH-agarose beads

Reference: patent US6863888 (University of California, dated 2005)
